AlphaSeq binding of Ab-14 light chain variants to a spike HR2 peptide

Data: MIT Lincoln Laboratory AlphaSeq set, Engelhart et al. 2022, doi:10.1038/s41597-022-01779-4, as distributed in FLAb.

Binding partner: SARS-CoV-2 spike HR2 peptide, sequence PDVDLGDISGINAS.

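The parent was found by panning a naive human phage display library on the peptide. The library (AAYL50) carries one to three amino acid substitutions per variant, with no insertions or deletions. In AlphaSeq, yeast of one mating type display the scFv and yeast of the other type display the target. The frequency of each diploid, read from paired DNA barcodes, reflects how well the two displayed proteins bind. Each replicate has its own calibration line, from reference interactions of the BCL2 family. Each pool was mated in three replicate cultures.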

The variants keep the heavy chain, the linker and the frameworks of Ab-14 (scFv order VH, a 15-residue (Gly4Ser)3 linker, VL).
VH: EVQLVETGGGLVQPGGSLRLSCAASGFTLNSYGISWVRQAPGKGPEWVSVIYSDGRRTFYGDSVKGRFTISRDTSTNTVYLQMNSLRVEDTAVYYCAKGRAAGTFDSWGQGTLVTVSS
VL: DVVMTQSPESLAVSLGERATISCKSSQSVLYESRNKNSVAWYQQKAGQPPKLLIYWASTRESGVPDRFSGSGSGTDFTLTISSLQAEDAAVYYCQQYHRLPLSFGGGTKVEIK

The whole VL of each variant is written out.
Every variant below is changed at E32 of the VL (sequential numbering).
Kd is apparent (estimated from mating counts) and averaged on the log scale over replicates with a signal. Smaller is tighter.
Where no diploid with the target was found in any replicate, the entry reads "not detected": below detection, most likely a poor binder, though not proof of it.
Empty control strains, which show no peptide, gave a signal in 18% of pairings with library AAYL50; the median was 15 µM and 95% of these signals were weaker than 970 nM. No background was subtracted.

VL,apparent Kd,seen in
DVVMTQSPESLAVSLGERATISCKSIQSVLYLSRCKNSVAWYQQKAGQPPKLLIYWASTRESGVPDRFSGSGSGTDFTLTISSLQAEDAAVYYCQQYHRLPLSFGGGTKVEIK,16 µM,2 of 3
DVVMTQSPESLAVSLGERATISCPHSQSVLYSSRNKNSVAWYQQKAGQPPKLLIYWASTRESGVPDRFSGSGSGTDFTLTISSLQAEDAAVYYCQQYHRLPLSFGGGTKVEIK,5.6 µM,1 of 3
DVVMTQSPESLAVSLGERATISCHSSQSVLYTSRNKNSVAWYQQKAGQPPKLLIYWAWTRESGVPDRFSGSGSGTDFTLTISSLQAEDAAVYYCQQYHRLPLSFGGGTKVEIK,70 nM,3 of 3
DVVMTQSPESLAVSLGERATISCKSSQSVLYCQRNQNSVAWYQQKAGQPPKLLIYWASTRESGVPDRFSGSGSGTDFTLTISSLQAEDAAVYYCQQYHRLPLSFGGGTKVEIK,21 µM,2 of 3
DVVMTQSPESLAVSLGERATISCKSSQSVLYASRNKRSVAWYQQKAGQPPKLLIYWASYRESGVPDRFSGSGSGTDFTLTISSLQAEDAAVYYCQQYHRLPLSFGGGTKVEIK,290 nM,3 of 3
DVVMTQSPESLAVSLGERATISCKSSQSVLHQSRNKNSVMWYQQKAGQPPKLLIYWASTRESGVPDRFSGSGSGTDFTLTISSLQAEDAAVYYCQQYHRLPLSFGGGTKVEIK,not detected,0 of 3
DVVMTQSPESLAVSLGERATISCYSSQSVLYSSRNKNSLAWYQQKAGQPPKLLIYWASTRESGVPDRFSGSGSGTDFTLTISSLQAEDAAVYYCQQYHRLPLSFGGGTKVEIK,not detected,0 of 3
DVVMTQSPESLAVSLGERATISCKYSQSVLYPSRNKNSVAWYQQKAGQPPKLLIYWASTIESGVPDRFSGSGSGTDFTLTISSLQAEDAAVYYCQQYHRLPLSFGGGTKVEIK,1.6 µM,3 of 3
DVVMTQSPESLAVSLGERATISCKSSQSVLYDSPNKNSVAWYQQKAGQPPKLLIYWAETRESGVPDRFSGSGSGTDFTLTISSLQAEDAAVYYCQQYHRLPLSFGGGTKVEIK,1.7 nM,3 of 3
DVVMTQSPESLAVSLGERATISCKSSQSVLYPSRNKNSVAWYQQKAGQPPKLLIYWAETEESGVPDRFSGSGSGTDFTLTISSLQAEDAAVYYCQQYHRLPLSFGGGTKVEIK,78 µM,1 of 3
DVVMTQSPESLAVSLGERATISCKSSQSVLYISLQKNSVAWYQQKAGQPPKLLIYWASTRESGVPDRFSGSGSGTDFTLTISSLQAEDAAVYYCQQYHRLPLSFGGGTKVEIK,not detected,0 of 3
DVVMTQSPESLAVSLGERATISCKSSQSLLYVSRNKNSVAWYQQKAGQPPKLLIYWASTRNSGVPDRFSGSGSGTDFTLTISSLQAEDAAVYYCQQYHRLPLSFGGGTKVEIK,20 nM,3 of 3
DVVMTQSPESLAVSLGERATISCKSSQSVLYLSRNKNSVAWYQQKAGQPPKLLIYWASKRESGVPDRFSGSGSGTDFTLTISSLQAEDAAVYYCQQAHRLPLSFGGGTKVEIK,not detected,0 of 3
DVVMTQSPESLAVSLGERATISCKSSQSVLYTSRWKNSVAWYQQKAGQPPKLLIYQASTRESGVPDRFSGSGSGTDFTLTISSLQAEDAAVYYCQQYHRLPLSFGGGTKVEIK,170 nM,3 of 3
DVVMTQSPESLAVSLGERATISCKSSQSVLYKLRNKTSVAWYQQKAGQPPKLLIYWASTRESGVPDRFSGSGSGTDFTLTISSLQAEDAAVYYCQQYHRLPLSFGGGTKVEIK,not detected,0 of 3
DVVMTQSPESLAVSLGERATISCKSSDSVLYNSRNFNSVAWYQQKAGQPPKLLIYWASTRESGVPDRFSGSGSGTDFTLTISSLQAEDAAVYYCQQYHRLPLSFGGGTKVEIK,6.3 nM,3 of 3
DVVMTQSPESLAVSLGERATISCKSSQSVLYASRNKNSVAWYQQKAGQPPKLLIYWASTRESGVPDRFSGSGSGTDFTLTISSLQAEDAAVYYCQQYHGLPLSFGGGTKVEIK,280 nM,3 of 3
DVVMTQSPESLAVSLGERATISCKSSQSVLYWSWNKNSVCWYQQKAGQPPKLLIYWASTRESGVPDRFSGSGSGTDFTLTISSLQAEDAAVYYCQQYHRLPLSFGGGTKVEIK,not detected,0 of 3
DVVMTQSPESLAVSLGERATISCKSSQSVLYYSLNKNSNAWYQQKAGQPPKLLIYWASTRESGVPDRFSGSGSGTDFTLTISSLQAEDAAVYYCQQYHRLPLSFGGGTKVEIK,27 µM,1 of 3
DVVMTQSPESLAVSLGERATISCKSSQSVLYGSMNKNSVAWYQQKAGQPPKLLIYWASTPESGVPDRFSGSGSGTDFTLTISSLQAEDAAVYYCQQYHRLPLSFGGGTKVEIK,38 nM,3 of 3
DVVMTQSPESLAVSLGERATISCKSSQSVLYRSDNKNSVAWYQQKAGQPPKLLIYWASTRISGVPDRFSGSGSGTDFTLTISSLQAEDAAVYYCQQYHRLPLSFGGGTKVEIK,32 nM,3 of 3
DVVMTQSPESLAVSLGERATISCKSSQSVLYSSRNKNSVAWYQQKAGQPPKLLIYTASTRESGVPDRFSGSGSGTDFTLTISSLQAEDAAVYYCQNYHRLPLSFGGGTKVEIK,230 nM,3 of 3
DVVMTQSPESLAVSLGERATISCKSSQSVAYQSRNKNSVAWYQQKAGQPPKLLIYWASTRESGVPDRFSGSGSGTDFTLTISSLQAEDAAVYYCQQYHRGPLSFGGGTKVEIK,620 nM,3 of 3
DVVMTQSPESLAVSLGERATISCKRSQSVLYFSRNKNCVAWYQQKAGQPPKLLIYWASTRESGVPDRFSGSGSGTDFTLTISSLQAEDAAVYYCQQYHRLPLSFGGGTKVEIK,not detected,0 of 3

From the list, the first 3 with no signal in any replicate:

| VL | apparent Kd | seen in |
|---|---|---|
| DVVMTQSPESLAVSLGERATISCKSSQSVLHQSRNKNSVMWYQQKAGQPPKLLIYWASTRESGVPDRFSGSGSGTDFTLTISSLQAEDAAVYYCQQYHRLPLSFGGGTKVEIK | not detected | 0 of 3 |
| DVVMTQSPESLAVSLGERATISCYSSQSVLYSSRNKNSLAWYQQKAGQPPKLLIYWASTRESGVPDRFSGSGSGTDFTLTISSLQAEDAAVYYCQQYHRLPLSFGGGTKVEIK | not detected | 0 of 3 |
| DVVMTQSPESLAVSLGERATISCKSSQSVLYISLQKNSVAWYQQKAGQPPKLLIYWASTRESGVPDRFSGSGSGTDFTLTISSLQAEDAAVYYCQQYHRLPLSFGGGTKVEIK | not detected | 0 of 3 |